Results published in ChEMBL document CHEMBL4334547 (ACS Med Chem Lett, 2020).

System: HEK293
Assay: Inhibition of mouse derived homozygous Tg0N4R P301S mutant tau-induced human ON4R tau aggregation harboring P301S mutant transfected in HEK293 cells preincubated for 2 hrs followed by compound addition and measured after 3 hrs by YFP-based fluorescence assay

| SMILES | fEC50 |
| --- | --- |
| Cc1nc(CC(=O)N2CCN(c3cncc4ccccc34)CC2)co1 | 210 nM |
| CC(=O)c1ccc2cncc(N3CCN(c4ccc5cnn(C)c5c4)CC3)c2c1 | 5 nM |
| CN(C)C(=O)Cn1cc(-c2ccc(-c3cncc4ccccc34)cc2)cn1 | 2 nM |
